From US20220002435A1 (IMMUNOME, published 2022) come the findings set out here.

Experiment [1] addresses T1, human EPN1 expressed by human cell lines (human, UniProt Q9Y6I3 1-576).
T1 construct: Endogenous EPN1 of human tumour and normal cell lines, stained on live cells or on fixed and permeabilised cells, or immunoprecipitated; The cell lines were not engineered to express it; also called surface EPN1; huEPN1
T1 sequence: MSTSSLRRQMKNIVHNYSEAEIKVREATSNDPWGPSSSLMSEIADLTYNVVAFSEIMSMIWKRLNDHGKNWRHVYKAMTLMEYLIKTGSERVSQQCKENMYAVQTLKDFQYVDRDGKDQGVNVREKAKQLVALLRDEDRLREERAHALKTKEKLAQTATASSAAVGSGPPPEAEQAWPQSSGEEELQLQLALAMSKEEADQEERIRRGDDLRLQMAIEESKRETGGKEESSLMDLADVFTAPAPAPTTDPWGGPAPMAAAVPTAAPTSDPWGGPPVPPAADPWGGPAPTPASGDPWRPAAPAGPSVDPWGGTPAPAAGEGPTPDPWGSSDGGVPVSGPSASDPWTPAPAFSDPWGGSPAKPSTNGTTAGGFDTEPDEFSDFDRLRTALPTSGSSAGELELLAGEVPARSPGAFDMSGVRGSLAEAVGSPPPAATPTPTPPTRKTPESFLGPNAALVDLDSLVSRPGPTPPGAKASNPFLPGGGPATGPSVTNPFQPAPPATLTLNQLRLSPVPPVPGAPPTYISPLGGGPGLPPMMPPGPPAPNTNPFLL
Nature of the experiment: flow cytometry, HeLa cells (human tumor line).

Experiment [2] has as its target T1, human EPN1 expressed by human cell lines. As to the kind of experiment: flow cytometry, PSN1 cells (human tumor line). (In flow cytometry, cells or beads pass a laser one at a time.)
The target is the same in experiment [3]. As to the kind of experiment: flow cytometry on intact A549 cells. The source says:
Binding of IMM20059 to intact cells was detected with fluorophore-labelled anti-human secondary antibodies.
Full-length IgG1 antibody, containing the PR045-2H11 Ab VH and VL domains, was expressed recombinantly by transient transfection into mammalian cell lines, such as Chinese Hampster Ovary (CHO) and human embryonic kidney (HEK), or derivatives of those cell lines, using standard conditions. The recombinant antibody, referred to as IMM20059, was purified from conditioned media by affinity chromatography, buffer exchanged into PBS and analyzed for activity by flow cytometry. […] IMM20059 binds, to varying degrees, to the surfaces of cells included in a panel of human cancer cells, immortalized normal human cell lines, and mouse tumor lines (Table 1).

Experiment [4] has the same target. As to the kind of experiment: flow cytometry, HT1197 cells (human tumor line).
The target is the same in experiment [5]. Nature of the experiment: flow cytometry, MCF7 cells (human tumor line).
Experiment [6] has the same target. Nature of the experiment: flow cytometry, HEK293 cells (human normal line).
Experiment [7] shares this target. As to the kind of experiment: flow cytometry, HT29 cells (human tumor line).
For experiment [8] the target is unchanged. Nature of the experiment: flow cytometry, CAL27 cells (human tumor line).

B1: IMM20059 (antibody, human IgG1, kappa, V domains shown)
VH: EVQLVESGGGLVQPGGSLRLSCAASGFTFSIHSLNWVRQAPGKGLEWVSYISSNSTTIYYADSVKGRFTISRDNAKDSLYLQMNSLRDEDTAVYYCARDYYCTGGTCFFLPDLWGRGALVTVSS
VL: EIVLTQSPATLSLSPGERATLSCRASQNISNFLAWYQHKPGQAPRLLIYDASIRATGIPARFSGSGSGTDFSLTISSLEPEDFAVYFCQQRYNWLTFGGGTKVEIKR
On to B1, for which the “MFI (fold mean fluorescence index above isotype control)” value in experiment [1] turned out to be 3 fold; in experiment [2], 3 fold; in experiment [4], 3 fold; in experiment [5], 2 fold; in experiment [6], 5 fold; in experiment [7], 6 fold. Moreover, the “MFI (fold mean fluorescence index above isotype control)” value in experiment [8] came out at 13 fold. In addition, in experiment [3], the midpoint of the response, the EC50, lay at 0.9 µg/mL.
